Values of other authors as cited in article PMC5942357 (European Journal of Clinical Pharmacology, 2018).

Tested on: activation of TGFβ
Settings: cited from earlier work

In the case of `Cc1cc(C)n(-c2cccc([C@H](CC(=O)O)CN3CC[C@@H](CCc4ccc5c(n4)NCCC5)C3)c2)n1` [GSK3008348], the “Effect on activation of TGFβ” value is given as “inhibit the activation of TGFβ with a prolonged duration of action”.
